This series is described as follows: pharmacokinetics of the implant system in healthy volunteers with induced fever (Example 7).

Some compounds may have been tested in ways that are not shown here.

Compound `CCC(=O)N(c1ccccc1)C1(COC)CCN(CCc2cccs2)CC1` displayed an absorption half-life (absorption from subcutaneous implant 5 micrograms per hour, about 109 mg/ml, healthy volunteers, NONMEM population model) of 16.2 h. The “impact of induced fever on plasma concentration (Cp) of sufentanil” value (experimental fever of about 2.5° C. induced by aldesleukin on day 9, implant 5 micrograms per hour) is on record as “not associated with an undesirable systemic increase”.

(Values after patent US6835194B2.)
